What was measured:
Assay type in all cases: cell-based
[1] = tested on: MCF7 breast cancer cell; assay: Cell Viability Assay (CellTiter-Glo), MCF7; conditions: MCF7, Table 2 (another assay)
[2] = tested on: NCI-N87 cells; assay: Cell Viability Assay (CellTiter-Glo), NCI-N87; conditions: NCI-N87, Table 2 (another assay)
[3] = tested on: BT-474 cells; assay: Cell Viability Assay (CellTiter-Glo), BT-474; conditions: BT-474, Table 2 (another assay)
[4] = tested on: SK-BR-3 cells; assay: Cell Viability Assay (CellTiter-Glo), SK-BR-3; conditions: SK-BR-3, Table 2 (another assay)

## Trastuzumab
[1]
  IC50: 447 nM
[2]
  IC50: 69.5 nM
[3]
  IC50: 267 nM
[4]
  IC50: 122 nM
